Test results as given in ChEMBL document CHEMBL1130160 (J Med Chem, 1997).

The chains behind the UniProt entries cited, without tags or fusion partners. Where a name states a change or a piece, a line headed by the entry shows the natural chain unless it says otherwise.
UniProt Q92731: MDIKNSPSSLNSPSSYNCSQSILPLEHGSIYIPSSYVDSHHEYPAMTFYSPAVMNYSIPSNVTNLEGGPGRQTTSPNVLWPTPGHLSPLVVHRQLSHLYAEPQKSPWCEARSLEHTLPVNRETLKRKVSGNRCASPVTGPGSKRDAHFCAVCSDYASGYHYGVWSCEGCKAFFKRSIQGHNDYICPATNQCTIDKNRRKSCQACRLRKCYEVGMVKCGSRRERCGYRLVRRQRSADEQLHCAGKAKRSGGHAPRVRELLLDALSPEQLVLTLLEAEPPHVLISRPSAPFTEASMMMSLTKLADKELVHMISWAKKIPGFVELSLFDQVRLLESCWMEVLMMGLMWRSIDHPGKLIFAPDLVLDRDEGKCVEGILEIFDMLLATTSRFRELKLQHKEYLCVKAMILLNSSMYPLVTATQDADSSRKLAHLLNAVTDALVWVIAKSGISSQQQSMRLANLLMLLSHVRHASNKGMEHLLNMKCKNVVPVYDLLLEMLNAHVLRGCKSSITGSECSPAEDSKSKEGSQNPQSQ
UniProt P03372: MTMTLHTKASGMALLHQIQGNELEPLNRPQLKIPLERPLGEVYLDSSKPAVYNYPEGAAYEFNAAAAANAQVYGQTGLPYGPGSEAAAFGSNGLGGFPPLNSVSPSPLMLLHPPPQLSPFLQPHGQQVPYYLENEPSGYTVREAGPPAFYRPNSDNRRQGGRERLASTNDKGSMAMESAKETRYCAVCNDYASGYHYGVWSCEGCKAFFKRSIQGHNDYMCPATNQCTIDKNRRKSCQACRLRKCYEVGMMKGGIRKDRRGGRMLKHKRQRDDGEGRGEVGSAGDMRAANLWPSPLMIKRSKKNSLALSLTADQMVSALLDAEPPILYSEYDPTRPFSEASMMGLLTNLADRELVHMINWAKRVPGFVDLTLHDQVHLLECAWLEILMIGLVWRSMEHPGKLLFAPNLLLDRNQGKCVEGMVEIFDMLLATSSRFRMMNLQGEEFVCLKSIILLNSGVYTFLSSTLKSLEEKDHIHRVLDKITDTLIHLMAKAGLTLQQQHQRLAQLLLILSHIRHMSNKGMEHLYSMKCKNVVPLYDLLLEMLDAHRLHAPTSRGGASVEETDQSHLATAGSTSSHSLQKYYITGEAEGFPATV

Biological target: Estrogen receptor (Homo sapiens, UniProt Q92731+P03372)
Conditions: mcf7

**Q.** For `Cc1sc2cc(O)ccc2c1C(=O)c1ccc(OCCN2CCCCC2)cc1`, which IC50 is on record?
**A.** The IC50 was 35 nM.

**Q.** How did the IC50 turn out when `O=C(c1ccc(OCCN2CCCCC2)cc1)c1c(C2CCCCC2)sc2cc(O)ccc12` was run?
**A.** Its IC50 is 2.5 nM.
